Screening data from PubChem.
ALDH1A1 inh: blocks purified human ALDH1A1 activity; 7.3% of 220,000 active; P00352; Purified ALDH1A1, NADH fluorescence, propionaldehyde substrate; Potency, µM (doses to about 75.3 µM), hits mostly inhibitors; active = well fitted inhibition curve with a large enough effect, not every such curve was filed as active; inconclusive = small, poorly fitted or top-dose-only effect, or another doubt; inactive = no such curve, though single readings can be large or run the other way
Lamin A splicing: modulators of lamin A splicing | 0.01% of 200,000 active | HeLa LMNA splicing GFP/RFP minigene ratio, 48 h | Potency, µM (series often up to 46.1 µM), usual class: inhibitors | AID 1487; active = well fitted inhibition curve with a large enough effect in the signal ratio, with a control signal flat, not every such curve was filed as active; inconclusive = small, poorly fitted or top-dose-only effect, or effect the other way, or a change in a side signal; the % refers to the signal ratio
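Read-out is the ratio of GFP to DsRed2 object intensity, acquired by 488 nm laser-scanning cytometry on HeLa lamin A-EGFP minigene reporter cells. Compound incubation 48 hrs at 37 °C in Opti-MEM with 2% FBS; DMSO 0.5% final.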
Sfp inh: inhibitors of Bacillus subtilis Sfp phosphopantetheinyl transferase. Q9F4F7. Biochemical Sfp PPTase activity, qHTS. Potency, µM, hits mostly inhibitors. 3.5% of 310,000 active. AID 1490;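 note: the enzyme is Sfp with the accession as filed and its product quenches rhodamine fluorescence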
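After 15 min at room temperature with compound, 15 nM Sfp received 5 uM rhodamine-CoA plus 12.5 uM BHQ-2-ybbR (50 mM Hepes pH 7.6, 10 mM MgCl2). Rate came from the fluorescence difference over 30 min, ex 525/em 598 nm.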
G9a inh: inhibitors of human histone lysine methyltransferase G9a | Q96KQ7 | G9a H3K9 monomethylation, AlphaScreen, 2 h | Potency, µM (titrated, usually from 102 µM), most hits filed as inhibitors | 8.8% of 350,000 active; note: nearly all actives have a fitted effect of over 75% in size
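Signal arises when biotinylated H3K9 peptide, once monomethylated, bridges streptavidin donor and antibody-captured acceptor beads. Enzyme at 20 nM was preincubated 15 min with test compounds; peptide 500 nM and SAM 20 uM then reacted for 2 h.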
miR-21 reporter: raises the signal of a miR-21 reporter | HeLa miR-21 FLuc reporter, luciferase, 48 h | Potency, µM (doses to about 38.3 µM) | 340,000 tested, under 10 active | AID 2288; active = well fitted rising curve with a large enough effect; inconclusive = small, poorly fitted or top-dose-only effect; inactive = no such curve, though single readings can be large or run the other way;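 also: miR-21 action dims this reporter so a rising signal means less miR-21 action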
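Using DMEM plus 10% FBS, HeLa miR-21-FLuc cells are incubated with test compounds (final up to about 40uM) for 48 hours; firefly luciferase signal is then imaged following reagent-mediated lysis.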
KDM4E inh: inhibitors of human JMJD2E histone demethylase | B2RXH2 | JMJD2E catalytic domain, FDH-coupled NADH fluorescence (FDH is formaldehyde dehydrogenase) | Potency, µM (doses to about 57.1 µM), actives largely listed as inhibitors | 1.6% of 230,000 active; active = well fitted inhibition curve with a large enough effect, not every such curve was filed as active; inconclusive = small, poorly fitted or top-dose-only effect, or another doubt; inactive = no such curve, though single readings can be large or run the other way; note: nearly all actives have a fitted effect of over 50% in size
Large screens that a line does not name were inactive. A selection: hits, their analogues and other compounds. The true share with any hit is near 13%. Unless noted, calls come from the whole dose curve; as a rule, active = well fitted curve in the direction sought with a large enough effect; inconclusive = small, poorly fitted or top-dose-only effect, or another doubt; inactive = no such curve, though single readings can be large; an effect the other way counts as inactive or inconclusive.

c1csc(-c2nnc(N3CCCCCC3)c3ccccc23)c1	ALDH1A1 inh inconclusive, Sfp inh inconclusive, G9a inh 10µM, KDM4E inh inconclusive
CCOc1ccc(-c2nnc(N3CCOCC3)c3ccccc23)cc1	none (no result: ALDH1A1 inh, Lamin A splicing, KDM4E inh)
O=C(COC(=O)c1ccc(C(F)(F)F)cc1)NC(=O)NC1CCCC1	none (no result: ALDH1A1 inh, Lamin A splicing, Sfp inh, miR-21 reporter, KDM4E inh)
CCCNC(=O)OC[C@@H]1O[C@H](CCO/N=C(\C)CCC(=O)OC[C@@H]2O[C@H](c3ccccc3)C=C[C@@H]2Oc2ccc(OC)cc2)C=C[C@@H]1Oc1ccc(OC)cc1	none (no result: Lamin A splicing, G9a inh, miR-21 reporter, KDM4E inh)
OC[C@H](S)CS	ALDH1A1 inh 0.1µM, Lamin A splicing inconclusive, Sfp inh 2.2µM, G9a inh 1µM (no result: miR-21 reporter, KDM4E inh)
COC(=O)c1ccccc1NC(=O)C1=CC(c2cccs2)=NS(=O)(=O)N1C	none (no result: ALDH1A1 inh, Lamin A splicing, KDM4E inh)
COc1cc(NC(=O)C2=CC(c3cccs3)=NS(=O)(=O)N2C)cc(OC)c1OC	G9a inh 45µM (no result: ALDH1A1 inh, Lamin A splicing, KDM4E inh)
CSc1ccccc1NC(=O)C1=CC(c2cccs2)=NS(=O)(=O)N1C	G9a inh 35µM (no result: ALDH1A1 inh, Lamin A splicing, KDM4E inh)
Cc1ccc(NC(=O)C2=CC(c3cccs3)=NS(=O)(=O)N2C)cc1	none (no result: ALDH1A1 inh, Lamin A splicing, KDM4E inh)
